Measured values published in patent US20200297862A1, “METHODS OF USING BISPECIFIC ANTIGEN-BINDING CONSTRUCTS TARGETING HER2” (Zymeworks Inc., priority 2016, published 2020).
pEC50: −log10 of the molar value.

Assays:
ST803 xenograft = experiment: PDX model of HER2 negative pancreatic cancer (Example 48)
MDA-MB-231 cells = experiment: ADCC, NK effector cells E:T 5:1; assay type: cell-based, human
FaDu xenograft = conditions: mouse, in vivo
Experimental: FaDu cells are derived from squamous cell cancer of the head and neck that is HER2 low, non-HER2 gene amplified, HER3+, EGFR+ and highly sensitive to Cisplatin at the MTD.
Tumor cell suspensions were implanted subcutaneously into athymic nude mice. […] Cisplatin was purchased and provided for the study by Charles River Laboratories (Morrisville, N.C.). Animals were treated according to Regimen 1 at Day 1, followed by Regimen 2 on subsequent days as noted in Table A4.

JIMT-1 xenograft = experiment: Trastuzumab-resistant breast cancer cell derived xenograft, ADC (Example 32); assay type: in vivo, RAG2 mice; conditions: Day 36
SKBr3 cells = experiment: ADCC, NK effector cells E:T 5:1; assay type: cell-based, human
Experimental: (§1) Target cells were pre-incubated with test antibodies (10-fold descending concentrations from 45 μg/ml) for 30 min followed by adding effector cells with effector/target cell ratio of 5:1 and the incubation continued for 6 hours at 37° C.+5% CO2. Samples were tested with 8 concentrations, 10 fold descending from 45 μg/ml. LDH release was measured using LDH assay kit.
(§2) Dose-response studies were performed with various concentrations of the samples with a effector/target (E/T) ratios of 5:1. 3:1 and 1:1. Half maximal effective concentration (EC50) values were analyzed with the sigmoidal dose-response non-linear regression fit using GraphPad prism.
(§3) The ADCC experiments were performed as described in Example 11 with the exception that NK effector cell to target cell ratio remained constant at 5:1.

ZR-75-1 cells = experiment: ADCC, PBMC effector cells E:T 5:1; assay type: cell-based, human
GXA3054 xenograft = experiment: PDX model of HER2 3+ gastric cancer (Example 49); assay type: in vivo, athymic nude mice
JIMT-1 cells [1] = experiment: ADCC, NK effector cells E:T 5:1; assay type: cell-based, human
Experimental: as §1, §2, §3
The ADCC experiment was conducted as described in Example 11 with E/T: 5:1 with NK-92 effector cells. FIG. 43A and Table 43 show the ADCC results in HER2 2+ JIMT-1 breast tumor cells.

SKOV3 cells [2] = experiment: ADCC (LDH release); assay type: cell-based, human
HBCx-5 xenograft = experiment: Trastuzumab resistant breast cancer PDX, ADC (Example 20); assay type: in vivo, athymic nude mice; conditions: Day 43
Experimental: (§4) Dosing for each group was as follows:
(§5) A) IgG control was dosed intravenously with a loading dose of 15 mg/kg on study day 1 and maintenance doses of 10 mg/kg administered on study days 4, 8, 11, 15, 18, 22, and 25
Tumor volume was measured throughout the course of the study, and the mean tumor volume, T/C ratio, number of responders, complete response, and zero residual disease parameters were assessed at day 43.

ST1337B xenograft = experiment: PDX model of HER2 1+, ER+ breast cancer (Example 47); assay type: in vivo, athymic nude mice; conditions: comparator groups (doses in Table A7)
T226 xenograft = experiment: Trastuzumab resistant breast cancer PDX, ADC (Example 19); assay type: in vivo, athymic nude mice; conditions: Day 31
Experimental: as §4, §5

SKOV3 cells [3] = experiment: Cytotoxicity of anti-HER2 ADCs in HER2+ cells; assay type: cell-based, human; conditions: continuous incubation 5 days, Celltiter-Glo; Table 16
SKOV3 xenograft = experiment: Human ovarian cancer cell xenograft model, ADC (Example 17); assay type: in vivo, athymic nude mice
JIMT-1 cells [4] = experiment: Cytotoxicity of anti-HER2 ADCs in HER2+ cells; assay type: cell-based, human; conditions: continuous incubation 5 days, Celltiter-Glo; Table 16
NCI-N87 cells = experiment: Cytotoxicity of anti-HER2 ADCs in HER2+ cells; assay type: cell-based, human; conditions: continuous incubation 5 days, Celltiter-Glo; Table 16
Experimental: Test antibodies were diluted in media and added to the cells at 10 μl/well in triplicate. The plates were incubated for 3 days 37° C. Cell viability was measured using either AlamarBlue™ (Biosource # dal1100), or Celltiter-Glo® and absorance read as per the manufacturer's instructions. Data was normalized to untreated control and analysis was performed in GraphPad prism.
Human IgG conjugated to DM1 (v6249) was used as a control in some cases. […] The method was conducted as described in Example 7 with the following modifications. The anti-HER2 ADCs were incubated with the target SKOV3 and JIMT-1 (FIGS. 17A and B) cells for 24 h, cells washed, media replaced and cell survival was evaluated after 5 day incubation at 37° C. […] In FIG. 17E-G, anti-HER2 ADCs were incubated continuously with target SKOV3, JIMT-1, NCI-N87 cells for 5 days. Cell viability was measured as described in Example 7 using either AlamarBlue™ (FIGS. 17A-D) or Celltiter-Glo® (FIGS. 17E-G).

trastuzumab [Herceptin ®]
Mean tumor volume on study day 54 (ST803 xenograft; mouse, in vivo): 1494 mm3
Median Survival (ST803 xenograft; study duration 71 days): 65.9 days
MDA-MB-231 HER2 0/1+ Max % Target Cell Lysis (MDA-MB-231 cells; NK E:T 5:1, Table 23): 44%
pEC50 (MDA-MB-231 cells; read-out: MDA-MB-231 HER2 0/1+ EC50, NK E:T 5:1, Table 23): 9.05
Tumor volume on study day 25 (FaDu xenograft): 1257 mm^3
Mean TV % change from Baseline (JIMT-1 xenograft): +541%
Mean TV (mm3) (JIMT-1 xenograft): 718 mm3
PR (>10% baseline regression) (JIMT-1 xenograft): 0/10
ZRD (TV < 20 mm3) (JIMT-1 xenograft): 0/10
SICBr3 HER2 3+ Max % Target Cell Lysis (SKBr3 cells; NK E:T 5:1, Table 23): 23%
pEC50 (SKBr3 cells; NK E:T 5:1, Table 23, read-out: SICBr3 HER2 3+ EC50): ~9.05
ZR-751 HER2 2+ Max % Target Cell Lysis (ZR-75-1 cells; PBMC E:T 5:1, Table 25): 21%
pEC50 (ZR-75-1 cells; PBMC E:T 5:1, Table 25, read-out: ZR-751 HER2 2+ EC50): ~9.30
complete responses (GXA3054 xenograft; day 35): 0/10
Mean tumor volume on study day 35 (GXA3054 xenograft; mouse, in vivo): 7.8 mm3
Tumor growth inhibition on day 35 (GXA3054 xenograft; mouse, in vivo): 92%
JIMT-1 HER2 2+ Max % Target Cell Lysis (JIMT-1 cells [1]; NK E:T 5:1, Table 23): 51%
pEC50 (JIMT-1 cells [1]; NK E:T 5:1, Table 23, read-out: JIMT-1 HER2 2+ EC50): 11.70
SKOV3 HER2 2+/3+ Max % Target Cell Lysis (SKOV3 cells [2]; NK E:T 5:1, Table 24): 14%
pEC50 (SKOV3 cells [2]; NK E:T 5:1, Table 24, read-out: SKOV3 HER2 2+/3+ EC50): ~9.22
Complete response (>10% baseline regression) (HBCx-5 xenograft): 0/5
Mean TV % change from Baseline (HBCx-5 xenograft): +598%
Mean TV (mm3) (HBCx-5 xenograft): 815 mm3
Zero residual disease (TV < 20 mm3) (HBCx-5 xenograft): 0/5
Tumor volume on study day 29 (ST1337B xenograft): 1264 mm3

v6246: v506 conjugated to DM1, analogous to T-DM1, trastuzumab-emtansine
% TGI (vs. hIgG) (T226 xenograft): 77%
Mean TV % change from Baseline (T226 xenograft): (+332%)
Mean TV (mm3) (T226 xenograft): 422 mm3
EC50 (SKOV3 cells [3]): 0.22 nM
% TGI (SKOV3 xenograft; Day 22): 54%
Mean TV % change from Baseline (SKOV3 xenograft; Day 22, n = 15): +297%
Mean TV (mm3) (SKOV3 xenograft; Day 22, n = 15): 873 mm3
Median Survival (SKOV3 xenograft; mouse, in vivo): 36 days
EC50 (JIMT-1 cells [4]): 3.52 nM
EC50 (NCI-N87 cells): 1.04 nM
